Here are results for two compounds from ChEMBL document CHEMBL1137231, “Efficient evaluation of binding free energy using continuum electrostatics solvation” (J Med Chem, 2004).

The chains behind the UniProt entries cited, without tags or fusion partners. Where a name states a change or a piece, a line headed by the entry shows the natural chain unless it says otherwise.
UniProt P56817: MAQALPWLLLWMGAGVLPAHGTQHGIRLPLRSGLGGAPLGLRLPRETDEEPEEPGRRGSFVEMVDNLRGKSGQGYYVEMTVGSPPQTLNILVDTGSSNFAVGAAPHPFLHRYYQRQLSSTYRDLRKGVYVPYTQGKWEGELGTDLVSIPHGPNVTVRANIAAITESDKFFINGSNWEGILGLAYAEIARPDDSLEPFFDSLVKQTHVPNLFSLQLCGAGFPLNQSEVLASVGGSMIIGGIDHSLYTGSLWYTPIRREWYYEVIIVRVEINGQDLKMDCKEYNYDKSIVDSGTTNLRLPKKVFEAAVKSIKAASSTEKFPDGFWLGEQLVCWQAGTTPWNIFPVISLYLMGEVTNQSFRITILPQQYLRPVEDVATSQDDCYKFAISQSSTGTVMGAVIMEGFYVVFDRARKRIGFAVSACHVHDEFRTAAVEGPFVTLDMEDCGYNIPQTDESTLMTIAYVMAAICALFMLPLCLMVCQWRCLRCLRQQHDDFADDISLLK

Structures are written as SMILES.

The assay concerns the target Beta-secretase 1 (Homo sapiens, UniProt P56817). Nature of the assay: Binding affinity towards Beta-secretase determined using continuum electrostatics solvation.

The compound `CC(C)C[C@H](NC(=O)C(CCS(C)(=O)=O)NC(=O)[C@@H](NC(=O)OC(C)(C)C)C(C)C)C(O)CC(C)C(=O)N[C@H](C(=O)NCc1ccccc1)C(C)C` (some centres not stated) returned an inhibition constant Ki of 0.008 µM. Under `CSCCC(NC(=O)[C@@H](NC(=O)OC(C)(C)C)C(C)C)C(=O)N[C@@H](CC(C)C)C(O)CC(CC(C)C)C(=O)N[C@H](C(=O)NCc1ccccc1)C(C)C` (some centres not stated) stands 10.5 µM.
